Measured values taken from US11530198B2, “Compositions and methods for treating infections” (priority 2016, dated 2022).

Protein sequences, listed by entry. Tags and fused reporters are not part of them. Lines headed by an entry give the natural chain unless they say otherwise; changes in a name come on top.
UniProt P00374: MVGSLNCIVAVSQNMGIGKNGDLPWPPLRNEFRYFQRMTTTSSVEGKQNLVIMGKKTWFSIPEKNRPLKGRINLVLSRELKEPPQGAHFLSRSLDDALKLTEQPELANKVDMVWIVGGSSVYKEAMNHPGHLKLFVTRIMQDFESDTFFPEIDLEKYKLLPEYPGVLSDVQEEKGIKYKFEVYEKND

Legend:
[1] = target: T. gondii DHFR (tgDHFR) (Toxoplasma gondii, UniProt Q07422); settings: for Average DHFR selectivity (h/tg): hDHFR IC50/tgDHFR IC50
[2] = target: hDHFR (Homo sapiens (Human), UniProt P00374); experiment: DHFR inhibition assay (diaphorase/resazurin coupled, fluorescence of resorufin), human DHFR; format: biochemical; settings: Table 11
[3] = target: T. brucei DHFR (tbDHFR) (Trypanosoma brucei brucei, UniProt Q27783); experiment: DHFR inhibition assay (diaphorase/resazurin coupled), T. brucei DHFR; format: biochemical
[4] = target: L. major DHFR (1mDHFR) (Leishmania major, UniProt P07382); format: biochemical; settings: hDHFR IC50/L. major DHFR IC50
[5] = target: T. cruzi DHFR (tcDHFR) (Trypanosoma cruzi, UniProt Q27793); experiment: DHFR inhibition assay (diaphorase/resazurin coupled), T. cruzi DHFR; format: biochemical; settings: hDHFR IC50/tcDHFR IC50

## Nc1ncc(N2CCN(c3cccc(-c4ccccc4)c3)CC2)c(N)n1 [Compound 2, 5-(4-([1,1′-biphenyl]-3-yl)piperazin-1-yl)pyrimidine-2,4-diamine]
[1]; Table 11, T. gondii DHFR
  tgDHFR pIC50-DHFR primary assay: 8.06
[1]
  Average DHFR selectivity (h/tg): 78.60
[2]
  hDHFR pIC50-DHFR primary assay: 6.16

## Nc1ncc(N2CCN(c3cccc(-c4ncccn4)c3)CC2)c(N)n1 [Compound 103, 5-(4-(3-(pyrimidin-2-yl)phenyl)piperazin-1-yl)pyrimidine-2,4-diamine]
[1]
  Average DHFR selectivity (h/tg): 47.50

## Nc1ncc(N2CCN(c3cccc(-c4cncnc4)c3)CC2)c(N)n1 [Compound 74, 5-(4-(3-(pyrimidin-5-yl)phenyl)piperazin-1-yl)pyrimidine-2,4-diamine]
[1]
  Average DHFR selectivity (h/tg): 302.00
[3]
  Average DHFR selectivity (h/tb)*-DHFR IC50: 550

## Nc1ncc(N2CCN(c3cccc(-c4ccnnc4)c3)CC2)c(N)n1 [Compound 73, 5-(4-(3-(pyridazin-4-yl)phenyl)piperazin-1-yl)pyrimidine-2,4-diamine]
[1]
  Average DHFR selectivity (h/tg): 184.08
[4]
  Average DHFR selectivity (h/lm)*-DHFR IC50: 44

## Nc1ncc(N2CCN(c3cccc(C(F)(F)F)c3)CC2)c(N)n1 [Compound 3, 5-(4-(3-(trifluoromethyl)phenyl)piperazin-1-yl)pyrimidine-2,4-diamine]
[1]
  Average DHFR selectivity (h/tg): 8.71

## Nc1ncc(N2CCN(c3cccc(C4CC4)c3)CC2)c(N)n1 [Compound 66, 5-(4-(3-cyclopropylphenyl)piperazin-1-yl)pyrimidine-2,4-diamine]
[1]
  Average DHFR selectivity (h/tg): 56.23

## Cc1cccc(N2CCN(c3cnc(N)nc3N)CC2)c1 [Compound 7, 5-(4-(m-tolyl)piperazin-1-yl)pyrimidine-2,4-diamine]
[1]
  Average DHFR selectivity (h/tg): 79.43

## Nc1ncc(N2CCN(c3cccc(-c4cnccn4)c3)CC2)c(N)n1 [Compound 104, 5-(4-(3-(pyrazin-2-yl)phenyl)piperazin-1-yl)pyrimidine-2,4-diamine]
[1]
  Average DHFR selectivity (h/tg): 129.32

## Nc1ncc(N2CCN(c3ccc(Cl)cc3)CC2)c(N)n1 [Compound 6, 5-(4-(4-chlorophenyl)piperazin-1-yl)pyrimidine-2,4-diamine]
[1]
  Average DHFR selectivity (h/tg): 23.71
[4]
  Average DHFR selectivity (h/lm)*-DHFR IC50: 65
[5]
  Average DHFR selectivity (h/tc): 150
